The values below come from patent US7727976B2.

Sequences of proteins named here, by UniProt entry; tags and fusion partners are left off.
UniProt Q12908, whole entry: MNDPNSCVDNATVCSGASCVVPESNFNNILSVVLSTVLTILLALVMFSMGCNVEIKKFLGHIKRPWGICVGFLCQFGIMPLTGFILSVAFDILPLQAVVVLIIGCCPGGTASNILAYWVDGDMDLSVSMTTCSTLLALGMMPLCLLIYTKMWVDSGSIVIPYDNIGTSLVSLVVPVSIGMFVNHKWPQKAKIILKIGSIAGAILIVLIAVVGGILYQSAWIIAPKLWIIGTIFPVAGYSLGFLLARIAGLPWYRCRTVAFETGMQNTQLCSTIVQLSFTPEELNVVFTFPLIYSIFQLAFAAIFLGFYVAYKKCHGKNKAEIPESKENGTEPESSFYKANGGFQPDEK
UniProt Q14973, whole entry: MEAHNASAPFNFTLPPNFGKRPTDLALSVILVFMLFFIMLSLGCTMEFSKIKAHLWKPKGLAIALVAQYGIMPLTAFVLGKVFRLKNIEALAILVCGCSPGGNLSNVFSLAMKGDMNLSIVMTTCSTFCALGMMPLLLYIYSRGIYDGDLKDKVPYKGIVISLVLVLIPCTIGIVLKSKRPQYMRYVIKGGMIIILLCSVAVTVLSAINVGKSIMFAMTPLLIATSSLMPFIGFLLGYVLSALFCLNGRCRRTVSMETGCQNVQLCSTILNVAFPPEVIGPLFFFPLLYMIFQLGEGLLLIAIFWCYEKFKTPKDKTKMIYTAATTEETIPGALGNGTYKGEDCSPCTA

Like-named read-outs stand apart in the source and are kept apart here.

For assay [1], the target named is T1, hIBAT (Homo sapiens, UniProt Q12908). In words: Electrogenic transport in Xenopus oocytes expressing hIBAT (oocyte assay). Particulars: relative to glycodeoxycholic acid (GDC) in transporter-expressing oocytes, test sample concentration 100 μM. The source says:
RNA preparation: Human IBAT and LBAT Transporter cDNAs were subcloned into a modified pGEM plasmid that contains 5′ and 3′ untranslated sequences from the Xenopus β-actin gene. These sequences increase RNA stability and protein expression. Plasmid cDNA was linearized and used as template for in vitro transcription (Epicentre Technologies transcription kit, 4:1 methylated:non-methylated GTP).
Xenopus oocyte isolation. Xenopus laevis frogs were anesthetized by immersion in Tricaine ([…] in deionized water) for 15 min. Oocytes were removed and digested in frog ringer solution (90 mM NaCl, 2 mM KCl, 1 mM MgCl2, 10 mM NaHEPES, pH 7.45, no CaCl2) with 1 mg/mL collagenase (Worthington Type 3) for 80-100 min with shaking. The oocytes were washed 6 times, and the buffer changed to frog ringer solution containing CaCl2 (1.8 mM). Remaining follicle cells were removed if necessary. Cells were incubated at 16° C., and each oocyte injected with […] RNA in 45 μL solution.
Electrophysiology measurements. Transport currents were measured 2-14 days after injection, using a standard two-electrode electrophysiology set-up (Geneclamp 500 amplifier, Digidata 1320/PCLAMP software and ADInstruments hardware and software were used for signal acquisition). Electrodes ([…]) were microfabricated using a Sutter Instrument puller and filled with 3M KCl. The bath was directly grounded (transporter currents were less than 0.3 μA). Bath flow was controlled by an automated perfusion system (ALA Scientific Instruments, solenoid valves).
For transporter pharmacology, oocytes were clamped at −60 to −90 mV, and continuous current measurements acquired using PowerLab Software and an ADInstruments digitizer. Current signals were lowpass filtered at 20 Hz and acquired at 4-8 Hz. All bath and compound-containing solutions were frog ringers solution containing CaCl2. Compounds were applied for 10-30 seconds until the induced current reached a new steady-state level, followed by a control solution until baseline currents returned to levels that preceded compound application. The difference current (baseline subtracted from peak current during compound application) reflected the net movement of charge resulting from electrogenic transport and was directly proportional to tranport rate. Recordings were made from a single oocyte for up to 60 min, enabling 30-40 separate compounds to be tested per oocyte. To compare results between oocytes expressing different levels of transport activity, a saturating concentration of glycodeoxycholate (300 μM) was used as a common reference to normalize results from test compounds. Using this normalization procedure Vmax (i.e. maximal induced current) for different compounds tested on different oocytes could be compared.

Assay [2] deals with T1, hIBAT. Kind of assay: Inhibition of radiolabeled taurocholate uptake in hIBAT-transfected CHO cells. Particulars: read-out: hIBAT, IC50, inhibition of tritiated taurocholate uptake. How it is done:
(§1) CHO cells transfected with either the hIBAT or hLBAT transporter were seeded into 96-well microtiter plates at 100,000 cells/well in 100 μL DMEM containing 10% serum, glutamine and Penstrep. After overnight incubation the media was removed and test compound (25 μL) added at 2× the final desired concentration. Tritiated taurocholate (50,000 CPM/well) was diluted with cold substrate to a final concentration of 5 μM and 25 μL/well of this mixture was added to the plate. After incubating for 1 h at room temperature the solution was removed and the plate washed 4× with PBS at 4° C. 200 μL/well of scintillant is added and the plate then read in a Wallac microbeta counter. The inhibition data is processed by standard methods to calculate an inhibition constant IC50 for the test compound.

The target in another assay is hLBAT (Homo sapiens, UniProt Q14973). Kind of assay: Inhibition of radiolabeled taurocholate uptake in hLBAT-transfected CHO cells. Particulars: read-out: hLBAT, IC50, inhibition of tritiated taurocholate uptake. The method, then: as §1
Where [3] appears, read: Table 9, radiolabelled competition assay in transporter-expressing CHO cells.
Setting [4] is: Table 12, drug/drug surrogate conjugates.
Setting [5] is: Table 11, drug/drug surrogate conjugates, transporter-expressing CHO cells.

For the molecule `C[C@H](CCC(=O)NCC(=O)O)[C@H]1CC[C@H]2[C@@H]3CC[C@@H]4Cc5[nH]ncc5C[C@]4(C)[C@H]3CC[C@]12C`, at hIBAT [1] (Table 10), the “% Max GDC” value is 26%. For the same molecule, the IC50 on hIBAT [2] (setting [3]) was 62 µM.
On to `C[C@H](CCC(=O)O)[C@H]1CC[C@H]2[C@@H]3[C@H](O)C[C@@H]4Cc5nn(CCO)cc5C[C@]4(C)[C@H]3CC[C@]12C`, for which the IC50 on hLBAT (setting [3]) is 4 µM; at hIBAT [2] (setting [3]) it was above 300 µM. Moreover, the “% Max GDC” value at hIBAT [1] (Table 10) is recorded as 7%.
`COc1ccc2cc([C@H](C)C(=O)Oc3cccc(Cn4cc5c(n4)C[C@H]4C[C@@H](O)[C@@H]6[C@H](CC[C@]7(C)[C@@H]([C@H](C)CCC(=O)NCC(=O)O)CC[C@@H]67)[C@@]4(C)C5)c3)ccc2c1`: the “% Max GDC” value at hIBAT [1] (setting [4]) is given as 12%.
In the case of `C[C@H](CCC(=O)O)[C@H]1CC[C@H]2[C@@H]3CC[C@@H]4Cc5nn(CCO)cc5C[C@]4(C)[C@H]3CC[C@]12C`, the IC50 was 110 µM on hLBAT (setting [3]) and above 300 µM on hIBAT [2] (setting [3]). For the same molecule, the “% Max GDC” value on hIBAT [1] (Table 10) was found to be 40%.
For `COc1ccc2cc([C@H](C)C(=O)Oc3cccc(Cn4cc5c(n4)C[C@H]4CC[C@@H]6[C@H](CC[C@]7(C)[C@@H]([C@H](C)CCC(=O)NCC(=O)O)CC[C@@H]67)[C@@]4(C)C5)c3)ccc2c1`, the “% Max GDC” value on hIBAT [1] (setting [4]) is 0%.
Take `C[C@H](CCC(=O)O)[C@H]1CC[C@H]2[C@@H]3[C@H](O)C[C@@H]4Cc5[nH]ncc5C[C@]4(C)[C@H]3CC[C@]12C`: the values for the IC50 on hLBAT (setting [3]) and on hIBAT [2] (setting [3]) were 0.6 µM and 2.5 µM, respectively. Moreover, on hIBAT [1] (Table 10), the “% Max GDC” value amounted to 18%.
For `C[C@H](CCC(=O)NCC(=O)O)[C@H]1CC[C@H]2[C@@H]3CC[C@@H]4Cc5nn(Cc6cccc(O)c6)cc5C[C@]4(C)[C@H]3CC[C@]12C`, the “% Max GDC” value on hIBAT [1] (Table 10) is listed as 27%.
Consider `C[C@H](CCC(=O)NCC(=O)O)[C@H]1CC[C@H]2[C@@H]3[C@H](O)C[C@@H]4Cc5nn(Cc6cccc(O)c6)cc5C[C@]4(C)[C@H]3C[C@H](O)[C@]12C`, for which the “% Max GDC” value on hIBAT [1] (Table 10) is 8%.
As to `C[C@H](CCC(=O)O)[C@H]1CC[C@H]2[C@@H]3[C@H](O)C[C@@H]4Cc5nn(Cc6cccc(O)c6)cc5C[C@]4(C)[C@H]3CC[C@]12C`, the results for the IC50 at hLBAT (setting [3]) and at hIBAT [2] (setting [3]) were 0.7 µM and 4.5 µM, respectively.
In the case of `C[C@H](CCC(=O)O)[C@H]1CC[C@H]2[C@@H]3CC[C@@H]4Cc5[nH]ncc5C[C@]4(C)[C@H]3CC[C@]12C`, the IC50 at hLBAT (setting [3]) is 26 µM; at hIBAT [2] (setting [3]), above 300 µM.
`C[C@H](CCC(=O)NCC(=O)O)[C@H]1CC[C@H]2[C@@H]3CC[C@@H]4Cc5nc(-c6ccc(C(N)=O)cc6)ncc5C[C@]4(C)[C@H]3CC[C@]12C`: the “% Max GDC” value on hIBAT [1] (Table 10) amounted to 8%.
With `C[C@H](CCC(=O)O)[C@H]1CC[C@H]2[C@@H]3CC[C@@H]4Cc5nn(Cc6cccc(O)c6)cc5C[C@]4(C)[C@H]3CC[C@]12C`, the values for the IC50 at hLBAT (setting [3]) and on hIBAT [2] (setting [3]) were 0.7 µM and 240 µM, respectively.
As to `CCC(COC(=O)OCCn1cc2c(n1)C[C@H]1CC[C@@H]3[C@H](CC[C@]4(C)[C@@H]([C@H](C)CCC(=O)NCC(=O)O)CC[C@@H]34)[C@@]1(C)C2)c1ccccc1` (some centres unmarked), the results for the IC50 at hLBAT (setting [5]) and at hIBAT [2] (setting [5]) were 3.2 µM and above 300 µM, respectively. Further, the “% Max GDC” value at hIBAT [1] (setting [4]) is recorded as 0%.
As to `C[C@H](CCC(=O)NCC(=O)O)[C@H]1CC[C@H]2[C@@H]3[C@H](O)C[C@@H]4Cc5nn(CCO)cc5C[C@]4(C)[C@H]3CC[C@]12C`, the “% Max GDC” value on hIBAT [1] (Table 10) came out at 13%.
With `C[C@H](CCC(=O)O)[C@H]1CC[C@H]2[C@@H]3CC[C@@H]4Cc5[nH]c(=O)ncc5C[C@]4(C)[C@H]3CC[C@]12C`, the IC50 at hLBAT (setting [3]) is 41 µM; on hIBAT [2] (setting [3]) it was 70 µM. Besides, the “% Max GDC” value at hIBAT [1] (Table 10) stood at 40%.

For orientation: IC50 means the concentration that inhibits the measured activity by half.
